Apparent affinities of Ab-14 variants for a coronavirus HR2 peptide

Target: peptide PDVDLGDISGINAS, taken from heptad repeat 2 (HR2) of SARS-CoV-2 spike.

Ab-14 is the parent antibody, in scFv form: VH, then a (GGGGS)3 linker, then VL. The heavy chain is unchanged in all variants.
VH: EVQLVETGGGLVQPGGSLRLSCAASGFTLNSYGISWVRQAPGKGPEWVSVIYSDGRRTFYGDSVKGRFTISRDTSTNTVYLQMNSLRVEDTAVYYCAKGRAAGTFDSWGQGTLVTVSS
VL: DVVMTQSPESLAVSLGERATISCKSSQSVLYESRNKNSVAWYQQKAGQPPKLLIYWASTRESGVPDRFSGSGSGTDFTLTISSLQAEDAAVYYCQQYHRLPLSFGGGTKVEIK

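Phage display of a naive human antibody library on the peptide gave the parent. Designed CDR sequences, proposed from the first random library and measured here. Several design methods are mixed in this list. The scFvs were displayed on barcoded MATa yeast, the peptide on MATalpha yeast. After mating in shaken culture at 30 °C for 16 h, diploids were selected and their barcode pairs sequenced. Scores were corrected for input abundance and mapped to Kd with protein pairs of known affinity run in the same pool. The assay was run in six technical replicates.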

Variants are written as CDR1, CDR2 and CDR3 of the light chain (limits as in the source). Parent: KSSQSVLYESRNKNSVA, WASTRES, QQYHRLPLS. This list holds designs with more than six substitutions. Values are log10 of the apparent Kd in nM; lower means stronger binding. An entry "nd" has no value in the source: the pair was not observed among the diploids in that replicate. This suggests poor binding but is not conclusive. In the paper, a design with two or fewer of six values counts as a poor binder.

For HMSALTMLGSRNRNSVA / QMTTREN / QQYDRLPLA, the assay gave 0.91, 0.55, 0.76, 0.28, 1.00, 0.64 (controls 0 of 18).
For MFDQQLMTENDKNNSVA / EENHLYN / QQYAQLPLI, the assay gave nd, 1.84, nd, 2.31, 2.17, 2.41 (controls 2 of 18).
For ALGDVTRMESNKKDSIA / DMSTRES / QQYHRLPLS, the assay gave 0.00, -0.16, 0.24, -0.22, 0.13, 0.18 (controls 0 of 18).
For ALSQSADMTSRNKNSVA / DLSTREN / QQYHRLPLS, the assay gave -0.23, -0.15, -0.10, -0.33, -0.03, 0.10 (controls 0 of 18).
For TISQSTLMTGLNRNSVA / QAEERIE / QQYHRLPLS, the assay gave 0.70, 0.39, 0.28, 0.27, 0.71, 0.51 (controls 0 of 18).
For KFEMLWDYKDRNLNSVA / NASTRES / QQYHRLPLS, the assay gave 0.33, 0.41, 0.43, 0.30, 0.21, 0.44 (controls 3 of 18).
For KISMLQRFQSDAKNNIA / EMSRREE / QQYHRLPLS, the assay gave -0.16, 0.16, -0.02, 0.15, 0.03, -0.04 (controls 1 of 18).
For SMSWAHFNGDNWKNSIA / DATHVAY / QQYSRLPIT, the assay gave 0.54, -0.04, 0.09, -0.08, 0.31, 0.29 (controls 1 of 18).
For KLQTLTYFENIGEHSVA / DVNTHVD / QQYFRLPLS, the assay gave 0.69, 0.74, 0.61, 0.52, -0.01, 0.83 (controls 1 of 18).
For SIQFFIENDAEWGDSIA / DVSATTA / QQYHRLPLA, the assay gave 1.10, 0.61, 0.37, 0.56, 1.11, 0.98 (controls 1 of 18).
For KLRQVTGYEEYLRNSVA / QMSTRAE / QDYHRLPLS, the assay gave 0.63, 0.39, 0.58, 0.39, 0.43, 0.96 (controls 3 of 18).
For HFAVNLTSLASSKQNVA / NASTVMV / QYYNRLPLS, the assay gave 1.46, 2.01, 1.43, 1.57, nd, 3.08 (controls 2 of 18).
For MIGEMLMQGIYKKNSIA / QANLRAD / QHYHRLPLE, the assay gave 1.89, 1.16, 1.08, 1.31, 1.26, 0.97 (controls 0 of 18).
For KMQNSNGYESRNKNAVA / QASTRMS / QQYHRLPLS, the assay gave 0.07, -0.10, -0.05, -0.30, -0.15, -0.04 (controls 2 of 18).
For HMSMLTLQGMRHTNSVA / QMTTREN / QQYDRLPLA, the assay gave 0.68, 0.49, 0.42, 0.42, 0.19, 0.80 (controls 1 of 18).
For AIKQLWSTMGAARHNVA / EADTRAI / QDYFRLPLI, the assay gave 0.41, 0.59, 0.47, 0.35, 0.35, 0.87 (controls 0 of 18).
For KLSQQWEYESRNHNNVA / AASTRED / QQYHRLPLS, the assay gave 0.07, 0.23, -0.44, -0.21, -0.03, -0.05 (controls 0 of 18).
For KLYDMAAVTMNNIRNVA / DNDNRED / QQYHRLPLS, the assay gave 0.12, 0.29, 0.09, 0.64, 0.25, 0.57 (controls 0 of 18).
For SISGFMKSLAAHSNSVA / DMTNREQ / QQYDRLPLS, the assay gave 0.54, 0.41, 0.41, 0.28, 0.37, 0.42 (controls 1 of 18).
For SLAESVHMESRNKNSVA / DNSTRES / QHYDRLPLS, the assay gave 2.14, nd, nd, nd, 3.69, 2.65 (controls 1 of 18).
For KLSQITGHMSMSKNNVA / EMVTREN / QQYDRLPLS, the assay gave 0.35, 0.37, 0.44, 0.54, 0.24, 0.38 (controls 0 of 18).
For KFGQGVHVESIMSNSIA / QTSTREE / QQYDRLPLS, the assay gave 0.78, 0.64, 0.13, 0.45, 0.46, 0.25 (controls 1 of 18).
For RLSLEHTGYGEMMNNIA / QGSTKQF / QQYDRLPLH, the assay gave 0.97, 0.79, 0.84, 0.68, 0.68, 0.85 (controls 2 of 18).
For QINVNRLMNYLHNNAIA / GKTLRVD / QQYARLPLS, the assay gave 0.81, 0.33, 0.51, 0.60, 0.81, 0.77 (controls 0 of 18).
For HVPNYTENFMSAKQNVA / DQSAKTS / QQYDRLPLA, the assay gave 1.74, 2.23, 1.75, 2.15, 1.50, 2.17 (controls 1 of 18).
For KLQQWWLYEGRNKNSVA / QASQRSD / QQYHRLPLS, the assay gave 0.17, -0.01, 0.00, 0.04, 0.19, 0.09 (controls 1 of 18).
For MMSQVTGMESRQRNNVA / QTSTREP / QQYDRLPLI, the assay gave 0.52, 0.93, 0.72, 0.14, 0.13, 0.64 (controls 2 of 18).
For KLSQSMEYEDRNSNSVA / HASTREQ / QQYHRLPLM, the assay gave 0.35, 0.12, 0.07, 0.08, 0.22, 0.30 (controls 1 of 18).
For KISFQYRYEQLSKNSIA / EAVTRLK / QQYHRLPLS, the assay gave 0.48, 0.62, 0.48, 0.59, 0.62, 0.75 (controls 1 of 18).
For SMTGDLLDGNREPSNIA / AQDIGTD / QQYHRLPFI, the assay gave 0.67, 0.30, 0.42, 0.17, 0.46, 0.01 (controls 0 of 18).
For KMTTNLGHQANRKNSIA / EVDMVAC / QQYMRLPLI, the assay gave 1.15, 2.03, 1.83, 1.37, 2.41, 1.99 (controls 0 of 18).
For KIGMQVTYESTMNNAIA / QMTTREE / QQYHRLPLS, the assay gave 0.27, 0.34, 0.55, 0.37, 0.56, 0.59 (controls 0 of 18).
For TLSQMSGVESVKHNSVA / ENSTREK / QQYDRLPLT, the assay gave 2.21, nd, 2.66, nd, 2.36, nd (controls 1 of 18).
For KLYQTVGYESRNKSRVA / DNSTRES / QQYDRLPLS, the assay gave nd, nd, nd, 4.39, 2.78, nd (controls 1 of 18).
For MISQSFLIGSRAKNSVA / QTSTREN / QQYDRLPLS, the assay gave 0.20, -0.19, -0.35, -0.26, -0.02, 0.43 (controls 1 of 18).
For KIGATLNTLYEKKNNVA / DLVLREN / QQYFRLPLS, the assay gave 0.57, 0.98, 0.74, 0.28, 0.14, 0.81 (controls 0 of 18).
For KLSQQNLYESRNKNSVA / NASQRLS / QCYHRLPLS, the assay gave 1.59, 1.17, 0.79, 1.67, 1.11, 0.81 (controls 1 of 18).
For IVSQLMLWGYHAKNSIA / EAEMRIN / QQYDRLPLF, the assay gave nd, nd, nd, nd, nd, nd (controls 0 of 18).
For IVSQLMLWGMHVKNSIA / EAELRLN / QQYDRLPLF, the assay gave 0.48, -0.18, nd, 0.84, 0.05, 0.77 (controls 0 of 18).
For KISMLQRFQSHAKNNIA / EMSRREE / QQYHRLPLS, the assay gave 0.20, 0.39, 0.17, 0.27, 0.31, 0.54 (controls 1 of 18).
For MVTQMAMTGMKNKRSVA / NAETREK / QQYHRLPLI, the assay gave 1.85, 1.66, 1.88, 1.54, 2.14, 1.33 (controls 3 of 18).

A sequence measured in both rounds can read differently, since the two assays cover different ranges. The parent sequence was in this pool as ten entries: three were never detected, three once, and four in most replicates, with averages from 0.34 to 2.37. Empty control strains, which show no peptide, gave a signal in 4% of pairings with all light chain designs; the median was 2.64 and 95% of these signals were weaker than 1.59. No background was subtracted. Also given: how often the same scFv was detected with the empty control strains.

From the AlphaSeq antibody data of Li et al. 2023 (doi:10.1038/s41467-023-39022-2), copy in the FLAb collection.